Earlier results as cited in patent publication US10206949B2, “Composition that relieves heartburn, GERD and hangovers” (priority 2015, dated 2019).

The chains behind the UniProt entries cited, without tags or fusion partners.
UniProt P25021, whole entry: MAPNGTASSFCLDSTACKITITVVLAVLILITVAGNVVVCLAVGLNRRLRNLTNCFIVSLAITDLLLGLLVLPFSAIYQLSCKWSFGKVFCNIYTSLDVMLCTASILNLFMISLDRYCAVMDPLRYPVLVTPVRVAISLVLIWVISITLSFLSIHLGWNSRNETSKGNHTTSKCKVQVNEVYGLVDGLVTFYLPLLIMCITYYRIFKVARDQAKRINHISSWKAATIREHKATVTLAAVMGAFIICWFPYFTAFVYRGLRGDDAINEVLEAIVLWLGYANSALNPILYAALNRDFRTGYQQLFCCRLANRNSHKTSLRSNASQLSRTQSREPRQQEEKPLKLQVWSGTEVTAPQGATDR

Molecular target: histamine receptor (Homo sapiens, UniProt P25021)
Settings: clinically

Structure (SMILES): NC(N)=Nc1nc(CSCCC(N)=NS(N)(=O)=O)cs1 [famotidine, 3-([2-(diaminomethyleneamino)thiazol-4-yl]methylthio)-N′-sulfamoyl-propanimid-amide]
- activity relative to cimetidine: 30 times more active than cimetidine
